Measurements from ChEMBL document CHEMBL1125782, “Structure/activity studies related to 2-(3,4-dichlorophenyl)-N-methyl-N-[2-(1-pyrrolidinyl)-1-substituted- ethyl]acetamides: a novel series of potent and selective kappa-opioid agonists” (1991).

Experiments:
Mus musculus [1] = test: Antinociceptive activity in acetic acid induced abdominal constriction assay after sc administration and abolished by naloxone administered at 3 mg/kg sc in mice; conditions: route subcutaneous, Abdomen
Mus musculus [2] = test: Antinociceptive activity against naloxone, after 3 mg/kg, sc administration in female mice(Alderley park strain),; conditions: route subcutaneous

Row | SMILES | ED50 (Mus musculus [1]) [mg/kg] | ED50 (Mus musculus [2]) [mg/kg]
1 | CC[C@@H](CN1CCCC1)N(C)C(=O)Cc1ccc(Cl)c(Cl)c1 | 0.43 | 
2 | COc1ccc(C(CN2CCCC2)N(C)C(=O)Cc2ccc(Cl)c(Cl)c2)cc1OC (stereo unspecified) | 0.05 | 
3 | COc1ccc(C(CN2CCCC2)N(C)C(=O)Cc2ccc(Cl)c(Cl)c2)c(OC)c1 (stereo unspecified) | 0.19 | 
4 | CN(C(=O)Cc1ccc(Cl)c(Cl)c1)C(CN1CCCC1)c1ccc(O)cc1 (stereo unspecified) | 0.045 | 
5 | CN(C(=O)Cc1ccc(Cl)c(Cl)c1)C(CN1CCCC1)c1cccc(Cl)c1 (stereo unspecified) | 0.086 | 
6 | CC(C)[C@@H](CN1CCCC1)N(C)C(=O)Cc1ccc(Cl)c(Cl)c1 |  | 0.05
7 | CN(C(=O)Cc1ccc(Cl)c(Cl)c1)C(CN1CCCC1)C(C)(C)C (stereo unspecified) | 0.03 | 
8 | CC(C)C[C@@H](CN1CCCC1)N(C)C(=O)Cc1ccc(Cl)c(Cl)c1 | 0.01 | 
9 | CCC(C)[C@@H](CN1CCCC1)N(C)C(=O)Cc1ccc(Cl)c(Cl)c1 (stereo partly specified) | 0.012 | 
10 | CC(C)[C@@H](CN1CCCCC1)N(C)C(=O)Cc1ccc(Cl)c(Cl)c1 | 0.075 | 
11 | CC(C)[C@H](CN1CCCC1)N(C)C(=O)Cc1ccc(Cl)c(Cl)c1 | > 10 | 
12 | COc1ccccc1C(CN1CCCC1)N(C)C(=O)Cc1ccc(Cl)c(Cl)c1 (stereo unspecified) | 0.04 | 
13 | COc1cccc(C(CN2CCCC2)N(C)C(=O)Cc2ccc(Cl)c(Cl)c2)c1 (stereo unspecified) | 0.03 | 
14 | CN(C(=O)Cc1ccc(Cl)c(Cl)c1)[C@H](CN1CC=CC1)c1ccccc1 | 0.005 | 
15 | CNc1cccc(C(CN2CCCC2)N(C)C(=O)Cc2ccc(Cl)c(Cl)c2)c1 (stereo unspecified) | 0.081 | 
16 | COc1ccc(C(CN2CCCC2)N(C)C(=O)Cc2ccc(Cl)c(Cl)c2)cc1 (stereo unspecified) | 0.12 | 
17 | C[C@@H](CN1CCCC1)N(C)C(=O)Cc1ccc(Cl)c(Cl)c1 | 0.86 | 
18 | CSc1ccc(C(CN2CCCC2)N(C)C(=O)Cc2ccc(Cl)c(Cl)c2)cc1 (stereo unspecified) | 0.32 | 
19 | CN(C(=O)Cc1ccc(Cl)c(Cl)c1)C(CN1CCCC1)c1cccc(O)c1 (stereo unspecified) | 0.055 | 
20 | CC(=O)Nc1cccc(C(CN2CCCC2)N(C)C(=O)Cc2ccc(Cl)c(Cl)c2)c1 (stereo unspecified) | 0.03 | 
21 | CCC[C@@H](CN1CCCC1)N(C)C(=O)Cc1ccc(Cl)c(Cl)c1 | 0.12 | 
